Laboratory results as given in patent US20260284211A1, “DISACCHARIDE LINKER, LINKER-PAYLOAD CONTAINING THE SAME AND GLYCAN CHAIN-REMODELED ANTIBODY-DRUG CONJUGATE, PREPARATION METHOD AND USES THEREOF” (GENEQUANTUM HEALTHCARE (SUZHOU) CO., LTD., priority 2023, published 2026).

Tested on: NCI-N87 human gastric cancer cells
Test: NCI-N87 subcutaneous transplanted tumor model in mouse
Assay type: in vivo, BALB/c nude mice
Settings: 5 mg/kg, 35 days after administration
Description: NCI-N87 human gastric cancer cells were subcutaneously inoculated on the right back of female BALB/c nude mice. On the 6th day after tumor cell inoculation, the tumor-bearing mice were randomly divided into 4 groups, with 5 mice in each group. […] The diameter of tumor was measured with vernier caliper twice a week. The calculation formula of tumor volume is V=0.5a×b^2, wherein a and b represent the long and short diameters of tumor respectively. The weight of mice was measured twice a week, and the behavior, food intake, physical signs or other abnormal behaviors were observed every day.
The calculation formula of relative tumor proliferation rate T/C (%) is as follows: T/C %=TRTV/CRTV×100% (TRTV: treatment group RTV; CRTV: negative control group RTV; RTV: relative tumor volume). RTV=Vt/V0, where V0 is the average tumor volume measured at the time of group administration, Vt is the average tumor volume measured at a certain time, and TRTV and CRTV take the data on the same day. […]

## Enhertu: Commercially available comparator given at 5 mg/kg in the NCI-N87 model
  Anti-tumor effect (tumor volume) versus vehicle control: significant anti-tumor effects
